Results taken from patent publication US6900041B2 (dated 2005).

Key:
GSK-3β expression = assay: RT-PCR of GSK-3β in endothelial cells; type: cell-based, human; details: endothelial cells (HMVEC); TNFα 10 ng/ml or AGE 100 μg/ml; 8 hours; vs control
[1] = test system: IL-6 production by endothelial cells; assay: IL-6 ELISA of endothelial cell media; type: cell-based, human; details: endothelial cells transduced with control vector

## AGE: Glycated HSA (AGE) from US Biologicals; advanced glycation end product
GSK-3β expression
  intensity of the 406 bp GSK-3β RT-PCR band: decreased
[1]
  induction of IL-6 expression: 7 fold
